Laboratory results published in patent publication US20220204611A1 (Amgen, published 2022).

T1: mouse TREM2 on cells (mouse, UniProt Q99NH8 19-227)
T1 construct: whole, on cells
T1 sequence (looked up): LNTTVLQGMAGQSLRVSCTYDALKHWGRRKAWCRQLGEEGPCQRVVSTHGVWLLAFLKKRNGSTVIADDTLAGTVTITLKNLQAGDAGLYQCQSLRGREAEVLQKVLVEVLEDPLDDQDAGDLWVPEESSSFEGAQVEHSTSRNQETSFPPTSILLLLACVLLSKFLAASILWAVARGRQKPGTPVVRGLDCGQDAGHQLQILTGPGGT

T2: cynomolgus TREM2 on transfected HEK293 cells (cynomolgus, UniProt A0A2K5UY34 49-260)
T2 construct: also called Cyno TREM2
T2 sequence: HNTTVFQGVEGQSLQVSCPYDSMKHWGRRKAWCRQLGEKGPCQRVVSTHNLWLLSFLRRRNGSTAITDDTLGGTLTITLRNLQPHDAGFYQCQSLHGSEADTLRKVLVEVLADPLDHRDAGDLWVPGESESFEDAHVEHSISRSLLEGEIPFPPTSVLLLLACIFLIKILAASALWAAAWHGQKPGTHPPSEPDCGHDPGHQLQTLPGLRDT

T3: human TREM2 on cells (human, UniProt Q9NZC2 19-230)
T3 sequence: T2 sequence with E10A, R60W, F89L, V125F, V157I, P193L, H201Y

T4: recombinant soluble cynomolgus TREM2 protein (cynomolgus TREM2 extracellular domain coupled to a Flag/His tag) (cynomolgus, UniProt A0A2K5UY34 49-204)
T4 construct: extracellular domain; also called Cyno TREM2
T4 sequence: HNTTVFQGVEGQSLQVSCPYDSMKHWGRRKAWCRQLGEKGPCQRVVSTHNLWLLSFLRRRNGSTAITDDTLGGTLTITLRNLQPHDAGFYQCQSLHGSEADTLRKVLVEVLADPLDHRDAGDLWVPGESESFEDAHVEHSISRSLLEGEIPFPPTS

T5: recombinant soluble human TREM2 protein (human TREM2 ECD-FlagHis) (human, UniProt Q9NZC2 19-174)
T5 sequence: T4 sequence with E10A, R60W, F89L, V125F

B1: 32E3 (antibody, human IgG2, V domains shown)
VH: EVQLVQSGAEVKKPGESLKISCKGSGYSFTSYWIGWVRQMPGKGLEWMGIIYPGDSDTRYSPSFQGQVTISADKSISTAYLQWSTLKASDTAIYYCARHDIIPAAPGAFDIWGQGTMVTVSS
VL: EFVLTQSPGTLSLSPGERATLSCRASQIISSNYLAWYQQKPGQAPRLLIYSASSRATGIPDRFSGSGSGTDFTLTISRLEPEDFAVYYCQQFDSSPITFGRGTRLDIK
notes: human IgG2 from hybridoma
B2: 24A10 (antibody, human IgG2, V domains shown)
VH: EVQVLESGGGLVQPGGSLRLSCAASGFTFSNYAMSWVRQAPGKGLEWVSAISGSGGSTYYADSVKGRFTISRDNSKNTLYLQMNSLRAEDTAVYYCAKGGWELFYWGQGTLVTVSS
VL: not shown
notes: human IgG2 from hybridoma
B3: 26A10 (antibody, V domains shown)
VH: EVQLVESGGALVQRGGSLRLSCAASRFTFSSFGMSWVRQAPGKGLEWVSYISSSSFTIYYADSVKGRFTISRDNAKNSFYLQMNSLRDEDTAVYYCAREGGLTMVRGVSSYGLDVWGQGTTVTVSS
VL: not shown
notes: human IgG2 from hybridoma
B4: 26F2 (antibody, V domains shown)
VH: B3 VH with R14P, R26G, V48I, Y95F, L102I, L113M
VL: not shown
notes: human IgG2 from hybridoma
B5: 4G10 (antibody, human IgG2, V domains shown)
VH: EVQLVQSGAEVKKPGESLKISCKGSGYSFPSYWIAWVRQMPGKGLEWMGIIYPGDSDTRYSPSFQGQVTISADKSISTAFLKWSSLKASDTAMYFCARQGIEVTGTGGLDVWGQGTTVTVSS
VL: DIQMTQSPSSLSASVGDRVTITCRASQGIRNDLGWYQQKPGNAPKRLIYAASSLPSGVPSRFSGSGSGPEFTLTISSLQPEDFATYYCLQHNSYPWTFGQGTKVEIT
notes: human IgG2 from hybridoma
B6: 25F12 (antibody, human IgG2, V domains shown)
VH: QVQLQQWGAGLLKPSETLSLTCAVYGGSFSSYYWSWIRQPPGKGLEWIGEINHSGNTNYNPSLKSRVTISVDTSKNQFSLKLSSVTAADTAVYYCAREGYYDILTGYHDAFDIWDQGTMVTVFS
VL: not shown
notes: human IgG2 from hybridoma
B7: 10E3 (antibody, human IgG2, V domains shown)
VH: EVQLVQSGAEVKKPGESLMISCKGSGYSFTNYWIGWVRQMPGKGLEWMGIIYPGDSDTRYSPSFQGQVTISADKSISTAYLQWSSLKASDTAMYFCARRRQGIWGDALDIWGQGTLVTVSS
VL: EIVMTQSPATLSVSPGERATLSCRASQSVSSNLAWFQQKPGQAPRLLIYGASTRATGIPARFSVSGSGTEFTLTISSLQSEDFAFYYCLQDNNWPPTFGPGTKVDIK
notes: human IgG2 from hybridoma
B8: 14C12 (antibody, human IgG2, V domains shown)
VH: B7 VH with N31S, I110F
VL: B7 VL with F85V
notes: human IgG2 from hybridoma
B9: 13E7 (antibody, human IgG2, V domains shown)
VH: B7 VH with N31S, I110F
VL: B7 VL with F85V
notes: human IgG2 from hybridoma
B10: 4C5 (antibody, V domains shown)
VH: EVQLVQSGAEVKKPGESLKISCKGSGHSFTNYWIAWVRQMPGKGLEWMGIIYPGDSDTRYSPSFQGQVTISADKSISTAYLQWSSLKASDTAVYFCARQRTFYYDSSGYFDYWGQGTLVTVSS
VL: DIQMTQSPSSVSASVGDRVTITCRASQGISNWLAWYQQKPGKAPKLLIYAASSLQVGVPLRFSGSGSGTDFTLTISSLQPEDFATYYCQQADSFPRNFGQGTKLEIK
notes: human IgG2 from hybridoma
B11: 6E7 (antibody, human IgG2, V domains shown)
VH: B10 VH with H27Y, N31S, V93M, G108D
VL: B10 VL with N31S, V56N, L60S, Y87F, N97T
notes: human IgG2 from hybridoma
B12: 16B8 (antibody, human IgG4, V domains shown)
VH: QVQLVQSGAEVKKPGASVKVSCKASGYTFTNYGISWVRQAPGQGLEWMGWISAYNGNTNYAQKLQGRVTMTTDTSTSTVYMELRSLRSDDTAVYYCARRGYSYGSFDYWGQGTLVTVSS
VL: DIQMTQSPSSVSASVGDRVTVTCRASQDINSWLAWYQQKPGKAPKLLIYAASSLQTGVPSRFSGSGSGTDFTLTISSLQPEDFATYSCQQSNSFPITFGQGTRLEIK
notes: human IgG4 (G4) from hybridoma
B13: 12G10 (antibody, human IgG2, V domains shown)
VH: EVQLLESGGGLVQPGGSLRLSCAASGFTFSSYAMSWVRQAPGKGLEWVSAIGGGGVSTYCADSVKGRFTISRDNSKNTLYLQMNSLRAEDTAVYYCAKFYIAVAGSHFDYWGQGTLVTVSS
VL: QAVPTQPSSLSASPGVLASLTCTLRSGINVGTYRIYWYQQKPGSPPQYLLRYKSDSDKQQGSGVPSRFSGSKDASANAGILLISGLQSEDEADYYCMIWYSSAVVFGGGTKLTVL
notes: human IgG2 from hybridoma

biological target: T1, mouse TREM2 on cells; assay: FACS, transfected HEK293 cells

GM fold over irrelevant control antibody	Binder
1 fold	B1
1.1 fold	B2
0.8 fold	B3
1.1 fold	B4
4.1 fold	B5
0.8 fold	B6
1.1 fold	B7
1.1 fold	B8
1.1 fold	B9
0.4 fold	B10
1.2 fold	B11
1.1 fold	B12
1.1 fold	B13

biological target: T2, cynomolgus TREM2 on transfected HEK293 …; assay: FACS, transfected HEK293 cells

GM fold over irrelevant control antibody	Binder
31 fold	B1
1.4 fold	B2
37.5 fold	B3
72.8 fold	B4
96.3 fold	B5
2.2 fold	B6
82.8 fold	B7
63.2 fold	B8
67.5 fold	B9
42.3 fold	B10
82.7 fold	B11
23.3 fold	B12

biological target: T3, human TREM2 on cells; assay: cell-based or functional assay

pSyk fold over control	Binder
8.2 fold	B1
6.8 fold	B2
6 fold	B3
5.4 fold	B4
11.7 fold	B5
4.2 fold	B6
12.1 fold	B7
11.1 fold	B8
11.4 fold	B9
9.26 fold	B10
13.7 fold	B11
11.1 fold	B13

biological target: T6, human TREM1 on a cell line stably expressing human TREM1/DAP12 (human, UniProt Q9NP99 21-234); assay: FACS on cell line stably expressing human TREM1/DAP12
T6 construct: signal peptide 1-20 left out

binding result	Binder
no binding	B1
no binding	B2
no binding	B3
no binding	B5
no binding	B6
no binding	B7
no binding	B8
no binding	B9
no binding	B10
no binding	B11
no binding	B12
no binding	B13

biological target: T4, recombinant soluble cynomolgus TREM2 …; assay: Octet BLI, antibody on anti-human Fc sensor, 25 C
Method: (§1) To quantitate the binding affinity of agonist antibodies for human TREM2, association and dissociation rate constants as well as the equilibrium dissociation constant were determined using anti-human Fc (Kinetic) sensors on an Octet® HTX instrument (Pall ForteBio). Agonist anti-TREM2 antibodies were made up in DMEM null media, 250 μL at 10 μg/mL. The, 250 uL of assay buffer (10 mM Tris (pH 7.6), 0.1% Triton X-100, 150 mM NaCl, 1mM CaCl₂, and 1 mg/mL BSA) was added to the antibody solutions to a final volume of 500 μL and final antibody concentration of 5 μg/mL. The anti-human Fc sensor was pre-incubated in 200 μL of the assay buffer for a minimum of 10 minutes. The sensor was then regenerated for 5 seconds in 10 mM glycine pH 1.5. Test agonist anti-TREM2 antibodies were loaded onto the sensor for 2 minutes, and baseline measurements were taken for 2 minutes. […] The recombinant TREM2 proteins were allowed to associate with the antibody-loaded sensor for 10 minutes, and then dissociation was measured for 10 minutes. The assay was conducted at 25° C. Experimental kinetic results were globally fit to a 1:1 binding model in order to determine the association and dissociation rate constants as well as the equilibrium dissociation constant.

koff	kon	Binder
0.00096 s⁻¹	560000 M⁻¹ s⁻¹	B5
0.00366 s⁻¹	324000 M⁻¹ s⁻¹	B7
0.00237 s⁻¹	272000 M⁻¹ s⁻¹	B9
0.0012 s⁻¹	330000 M⁻¹ s⁻¹	B10
0.0011 s⁻¹	460000 M⁻¹ s⁻¹	B11

biological target: T5, recombinant soluble human TREM2 protein …; assay: Octet BLI, antibody on anti-human Fc sensor, 25 C
Method: as §1

koff	kon	Binder
0.00098 s⁻¹	300000 M⁻¹ s⁻¹	B5
0.00182 s⁻¹	177000 M⁻¹ s⁻¹	B7
0.00158 s⁻¹	144000 M⁻¹ s⁻¹	B9
0.00049 s⁻¹	160000 M⁻¹ s⁻¹	B10
0.00069 s⁻¹	270000 M⁻¹ s⁻¹	B11

biological target: T6, human TREM1 on a cell line stably …; assay: FACS, human TREM1/DAP12 cell line

GM fold over irrelevant control antibody	Binder
1.1 fold	B1
1.1 fold	B2
1.5 fold	B3
1.2 fold	B5
1.2 fold	B6
1.6 fold	B7
1.4 fold	B8
1.4 fold	B9
0.8 fold	B10
1.2 fold	B11
1.1 fold	B12
1.1 fold	B13

Positions count from the first letter of the chain named.
